Target: human recombinant A2A adenosine receptors (Homo sapiens, UniProt P29274)
Assay: Radioligand binding to hA2A receptors expressed in CHO cells
Details: percentage given after the > bound; meaning not defined in the patent

Structure (SMILES): CCCn1c(=O)c2c(nc3n2CC(CC)=C3)n(Cc2ccccc2)c1=O [Compound 18, 1-Benzyl-7-ethyl-3-propyl-1H-pyrrolo[1,2-f]purine-2,4(3H,6H)-dione]
- [3H] ZM 241385 binding to hA2A receptors, percentage in parentheses: 98%
